{
  "source": "patent US6147097A",
  "about": "“Imidazole derivatives as anti-HIV agents” (Shionogi & Co., Ltd., priority 1994, dated 2000)",
  "molecular_target": "T1, purified recombinant HIV-1 reverse transcriptase (Human immunodeficiency virus type 1 group M subtype B, UniProt P04585)",
  "T1 construct": "purified recombinant HIV-1 reverse transcriptase; made in house; host or cells: Escherichia coli",
  "test": "reverse transcriptase inhibition, poly(rA)/(dT) template primer, [3H]dTTP uptake",
  "type": "biochemical",
  "note": "pIC50: −log10 of the molar value.",
  "data": [
    {"smiles": "CC(C)c1nc(COC(N)=O)n(Cc2ccccn2)c1Sc1cc(Cl)cc(Cl)c1", "note": "[Compound I-93]", "values": [
      {"measurement": "pIC50", "value": 5.96}
    ]}
  ]
}
